Each structure is given as a SMILES string.

The chains behind the UniProt entries cited, without tags or fusion partners.
UniProt Q13489, whole entry: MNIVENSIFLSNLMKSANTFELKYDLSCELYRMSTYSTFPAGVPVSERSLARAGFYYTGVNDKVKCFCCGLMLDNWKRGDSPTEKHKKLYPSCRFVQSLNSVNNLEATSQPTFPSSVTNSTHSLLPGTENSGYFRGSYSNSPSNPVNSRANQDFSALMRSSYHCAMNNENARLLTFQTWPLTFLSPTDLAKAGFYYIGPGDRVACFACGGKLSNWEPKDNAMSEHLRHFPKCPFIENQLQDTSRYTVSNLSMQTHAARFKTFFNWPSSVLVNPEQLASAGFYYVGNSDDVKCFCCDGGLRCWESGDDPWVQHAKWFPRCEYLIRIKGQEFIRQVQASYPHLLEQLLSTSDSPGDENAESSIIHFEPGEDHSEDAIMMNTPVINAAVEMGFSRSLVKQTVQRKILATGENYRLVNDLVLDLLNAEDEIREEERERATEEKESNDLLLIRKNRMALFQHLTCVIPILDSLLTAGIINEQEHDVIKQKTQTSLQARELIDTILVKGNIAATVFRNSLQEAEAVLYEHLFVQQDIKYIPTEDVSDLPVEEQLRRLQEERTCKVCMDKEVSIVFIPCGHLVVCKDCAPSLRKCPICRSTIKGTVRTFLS

Experiment [1] has as its target T1, Mucosa-associated lymphoid tissue lymphoma translocation protein 1 (Homo sapiens, UniProt Q9UDY8).
T1 sequence (Q9UDY8 whole entry): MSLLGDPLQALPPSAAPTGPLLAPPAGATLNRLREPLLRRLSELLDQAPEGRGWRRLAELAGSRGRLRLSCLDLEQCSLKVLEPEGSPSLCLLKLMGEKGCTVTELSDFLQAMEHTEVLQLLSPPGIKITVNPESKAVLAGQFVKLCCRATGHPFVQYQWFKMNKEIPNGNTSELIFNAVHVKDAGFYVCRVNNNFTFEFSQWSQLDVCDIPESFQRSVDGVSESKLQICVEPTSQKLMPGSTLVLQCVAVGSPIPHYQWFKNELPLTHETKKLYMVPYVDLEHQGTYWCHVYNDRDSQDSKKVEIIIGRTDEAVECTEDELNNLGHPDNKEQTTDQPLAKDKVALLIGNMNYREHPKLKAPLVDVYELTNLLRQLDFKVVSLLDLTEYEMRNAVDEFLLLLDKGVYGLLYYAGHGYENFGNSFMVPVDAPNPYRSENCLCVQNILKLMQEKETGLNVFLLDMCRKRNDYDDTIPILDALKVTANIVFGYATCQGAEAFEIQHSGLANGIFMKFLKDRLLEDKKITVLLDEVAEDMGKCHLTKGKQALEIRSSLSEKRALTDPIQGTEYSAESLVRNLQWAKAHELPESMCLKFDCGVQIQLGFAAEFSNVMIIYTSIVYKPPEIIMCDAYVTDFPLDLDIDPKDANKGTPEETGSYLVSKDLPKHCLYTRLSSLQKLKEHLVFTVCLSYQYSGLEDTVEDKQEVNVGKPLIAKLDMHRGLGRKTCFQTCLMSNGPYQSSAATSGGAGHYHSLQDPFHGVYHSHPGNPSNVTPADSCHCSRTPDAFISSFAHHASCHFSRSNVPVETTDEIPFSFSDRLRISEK
As to the kind of experiment: Inhibition of MALT1 (unknown origin) expressed in human Jurkat Clone K22 29Q_H23 cells assessed as IL2 production preincubated for 30 mins followed by PMA stimulation for 5.5 hrs by luciferase reporter gene assay. The class given is cell-based.

For experiment [2], the target named is Baculoviral IAP repeat-containing protein 3/Mucosa-associated lymphoid tissue lymphoma translocation protein 1 (Homo sapiens, UniProt Q13489+Q9UDY8). As to the kind of experiment: Inhibition of cIAP2-MALT1 (unknown origin) expressed in HEK293 cells assessed as inhibition of NFkappaB signaling after 24 hrs by luciferase reporter gene assay. In kind it is cell-based.

On to `O=C(Nc1cnc(-n2nccn2)c(C(F)(F)F)c1)Nc1cnc2cc(Cl)nn2c1C1CCCO1` (configuration not stated), for which the IC50 (commonly the concentration at which inhibition is half-maximal) in experiment [1] stood at 0.094 µM; in experiment [2], 0.117 µM.
